Reference: patent EP4834881A1, “QUINOLONE COMPOUNDS AND USE THEREOF” (dated 2026)

What was measured:
BALB/c mice [1] = assay: Allergic rhinitis model: IgE assay (ELISA) in peripheral blood, nasal lavage fluid and tracheal tissue; details: mean ± spread
Protocol: (§1) Experimental animals: BALB/c mice, from Guangdong Vital River Laboratory Animal Technology Co., Ltd.
Modeling was initiated on the day of grouping, which was designated as M1. Except for the normal group, mice in all modeling groups were intraperitoneally injected with a sensitization solution of (250 µg OVA (Ovalbumin) (Supplier: Shanghai Macklin, Lot No.: C16255388) mixed with 5 mg aluminum hydroxide/mL) per mouse, while the normal control group was given an equal volume of sterile PBS solution. The injection cycle was M1, M7, and M14. Starting from M21, challenge was carried out by nasal instillation once daily for 7 consecutive days. The challenge solution was a 50 mg/mL OVA solution, and a volume of 10 µL was instilled into each nostril per time. The normal control group was not subjected to nasal instillation.
Administration was initiated on the day of the challenge by nasal instillation, which was designated as D1, and was performed once daily for 7 consecutive days. The normal control group and the model control group were administered with vehicle alone under the same conditions:
Prior to necropsy, blood was collected from the eyeball. The collected mouse blood was then centrifuged at 1800 r/min at 4 °C for 15 min, and the supernatant serum was aliquoted and stored at -80 °C for testing. At the same time, nasal lavage fluid and tracheal tissues were collected. The IgE levels in the above three samples was detected using an ELISA method (Supplier: Shanghai Enzyme-linked Biotechnology Co., Ltd., Lot No.: ml1037602).

BALB/c mice [2] = assay: Urticaria model: anti-dinitrophenyl antibody sensitization and dinitrofluorobenzene challenge; number of wheals, serum IgE and histamine (ELISA); details: once daily, 6 days, mean ± SEM
Protocol: Experimental animals: BALB/c mice, from Hangzhou Ziyuan Laboratory Animal Technology Co., Ltd
After random grouping, the back of the mice was shaved in advance, with a shaving area of about 2 cm × 2 cm. Except for the normal control group, mice in the remaining groups were sensitized via tail vein injection of an anti-dinitrophenyl monoclonal antibody (Supplier: Sigma-Aldrich, Lot No.: 0000241402) (0.2 ng/mL) at a dose of 0.5 mL per mouse. After 24 h, the mice in each sensitization modeling group were challenged by topically applying 50 µL of 0.15% dinitrofluorobenzene (Supplier: Shanghai Macklin, Lot No.: C14969320) to the dorsal side of both ears. The normal control group was injected and topically applied with normal saline under the same conditions.
The administration regimen for the mouse urticaria model was as follows (the normal control group and the model control group were administered with vehicle alone under the same conditions) (once daily):
Mouse IgE ELISA detection kit: purchased from Shanghai Enzyme-linked Biotechnology Co., Ltd., Lot No.: ml1037602.
Mouse histamine ELISA detection kit: purchased from Shanghai Enzyme-linked Biotechnology Co., Ltd., Lot No.: ml1001877.
Microplate reader, manufacturer BioTek, model: Epoch.

BALB/c mice [3] = assay: Psoriasis model: imiquimod cream on mouse back, PASI score; details: 4mg/g Topical application, once daily, mean ± SEM
Protocol: as §1
The clinical severity of psoriasis was assessed using the Psoriasis Area and Severity Index (PASI) score. The PASI scoring criteria for mice are as follows:
The hair on the back of the mice was shaved, and the application area was marked with a marker pen. Imiquimod cream (Supplier: Sichuan Mingxin Pharmaceutical, Lot No.: 24054002) was applied to the back of the mice for several consecutive days to establish a mouse model of psoriasis. Before daily application, the residual cream was removed using pure water.
Administration was initiated on the day of grouping, which was designated as D1, and was performed once daily for 8 consecutive days. The normal control group and the model control group were administered with vehicle alone under the same conditions. Mice were scored according to the PASI (Psoriasis area and severity index). The administration regimen for the mouse psoriasis model was as follows: […]

BALB/c mice [4] = assay: Rosacea model: intradermal LL-37 in mice, erythema score; details: once daily, score 0-4, mean ± SEM
Source text: as §1
The hair on the back of the mice was shaved, and the modeling area was marked on the back skin, avoiding positions with abundant subcutaneous blood vessels. LL-37 (an antimicrobial peptide used for rosacea modeling) (Supplier: QYAOBlO (ChinaPeptides), Lot No.: 20240319) solution was drawn with a microsyringe and injected intradermally along the intradermal path. The needle was withdrawn slowly after injection. The modeling continued for 5 to 7 days, with injections administered twice a day.
Administration was initiated on the day of grouping, which was designated as D1, and was performed once daily for 7 consecutive days. The normal control group and the model control group were administered with vehicle alone under the same conditions. The changes in skin lesions at the injection site on the back of mice in each group were observed, and scores ranging from 0 to 4 were assigned based on the degree of erythema, wherein, a score of 0 indicates no erythema, a score of 1 indicates barely visible erythema, a score of 2 indicates pale erythema with blurred boundaries, a score of 3 indicates erythema with clear boundaries, and a score of 4 indicates dark erythema with clear boundaries. The administration regimen for the mouse rosacea model was as follows: […]

In the case of `COc1c(-c2ccc(S(=O)(=O)N3CC(F)(F)C3)cc2)c(F)cc2c(=O)c(C(=O)O)cn(C3CC3)c12`, the “Nasal Lavage Fluid IgE Concentration” value (BALB/c mice [1]; nasal lavage fluid) is reported as 11.0 ± 1.5 ng/mL, the “Peripheral Blood IgE Concentration” value (BALB/c mice [1]; serum) is reported as 6.8 ± 1.5 ng/mL and the “Tracheal Tissue IgE Concentration” value (BALB/c mice [1]; tracheal tissue) is reported as 11.9 ± 2.9 ng/mL. The “Histamine Level” value (BALB/c mice [2]; 4mg/kg Topical application) was 6.3 ± 1.0 ng/mL, the “IgE Level” value (BALB/c mice [2]; 4mg/kg Topical application) was 12.2 ± 2.0 µg/mL and the “Histamine Level” value (BALB/c mice [2]; 25mg/kg Oral) was 5.8 ± 1.0 ng/mL. For the same molecule, the “IgE Level” value (BALB/c mice [2]; 25mg/kg Oral) was 11.5 ± 2.0 µg/mL, the PASI score (BALB/c mice [3]; D1) was 0 and the PASI score (BALB/c mice [3]; D2) was 0.5±0.3. The PASI score (BALB/c mice [3]; D3) was 1.7±0.3, the PASI score (BALB/c mice [3]; D4) was 2.8±0.3 and the PASI score (BALB/c mice [3]; D5) was 3.6±0.4. For the same molecule, the erythema score (BALB/c mice [4]; D1, 4mg/g Topical application) was 1.6±0.3, the erythema score (BALB/c mice [4]; D1, 40mg/kg Oral) was 1.6±0.2 and the erythema score (BALB/c mice [4]; D2, 4mg/g Topical application) was 2.7±0.2. It also gave an erythema score (BALB/c mice [4]; D6, 4mg/g Topical application) of 1.6±0.3, an erythema score (BALB/c mice [4]; D6, 40mg/kg Oral) of 1.6±0.2 and an erythema score (BALB/c mice [4]; D7, 4mg/g Topical application) of 1.5±0.3. The erythema score (BALB/c mice [4]; D7, 40mg/kg Oral) was 1.5±0.3.
